The text below walks through data of patent publication US10106501B2, “Nuclear receptor modulators” (AbbVie Inc., priority 2015, dated 2018).

Chains of the proteins cited; added tags and fusions are not shown. Residues count along the entry.
UniProt P51449, 269-508 limits assumed, stated change not applied: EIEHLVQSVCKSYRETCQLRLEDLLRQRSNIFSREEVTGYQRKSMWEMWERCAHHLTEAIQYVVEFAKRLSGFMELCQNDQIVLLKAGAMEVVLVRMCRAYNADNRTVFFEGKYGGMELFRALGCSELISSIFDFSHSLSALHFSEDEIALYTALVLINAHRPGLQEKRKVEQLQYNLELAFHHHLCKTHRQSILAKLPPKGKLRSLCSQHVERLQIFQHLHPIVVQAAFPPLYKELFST

The structures appear in SMILES notation.

Usually IC50 stands for the midpoint of a concentration-inhibition curve. The low end stands for higher potency, the high end for lower potency.

The test concerns the target chimeric human RORγ-Gal4 receptor (Homo sapiens, UniProt P51449). In words: transient transactivation assay (RORγ-Gal4 luciferase reporter). The class given is cell-based. The following applies: Cos-7 cells transfected with RORγ-Gal4 and 5Gal4 pGL3 TK Luc reporter; overnight incubation; T0901317 at 10^-5 M as reference. For orientation: Reporter assays use an easily measured gene product as a stand-in for the process of interest.
Consider `Cc1cc(C#N)cc2c1cc(Cc1c(Cl)ccc(C(=O)N3CCC(C(C)(C)O)CC3)c1Cl)n2C` [AA-2], for which the IC50 was less than 100 nM.
On to `Cc1cc(C#N)cc2c1cc(Cc1c(Cl)ccc(C(=O)N3CCC(CO)CC3)c1Cl)n2C` [AA-7], for which the IC50 is less than 100 nM.
With `Cc1cc(C#N)cc2c1cc(Cc1c(Cl)ccc(C(=O)N3CCC(O)C3)c1Cl)n2C` (stereo not shown) [AA-18] the figure was less than 100 nM.
As for `COCCC1CCN(C(=O)c2ccc(Cl)c(Cc3cc4c(C)cc(C#N)cc4n3C)c2Cl)CC1` [AA-27], the IC50 is less than 100 nM.
In turn, `Cc1cc(C#N)cc2c1cc(Cc1c(Cl)ccc(C(=O)N3CCC(CC(C)O)CC3)c1Cl)n2C` (stereo not shown) [AA-37] gave an IC50 of less than 100 nM.
The compound `Cc1cc(C#N)cc2c1cc(Cc1c(Cl)ccc(C(=O)N3CC[C@@H](O)C3)c1Cl)n2C` [AA-39] registered an IC50 of 100 to 500 nM.
`Cc1cc(C(F)(F)F)cc2c1cc(C(=O)c1c(Cl)ccc(C(=O)N3CCN(CC(=O)O)CC3)c1Cl)n2C` [AQ-1] returned an IC50 of less than 100 nM.
`Cc1cc(C(F)(F)F)cc2c1cc(Cc1c(Cl)ccc(C(=O)N3CCN(CC(=O)O)CC3)c1Cl)n2C` [Example AW, 2-(4-(2,4-dichloro-3-((1,4-dimethyl-6-(trifluoromethyl)-1H-indol-2-yl)methyl)benzoyl)piperazin-1-yl)acetic acid]: the IC50 was less than 100 nM.
Compound `Cc1cc(C(F)(F)F)nc2c1cc(Cc1c(Cl)ccc(C(=O)N3CCC(C(=O)O)CC3)c1Cl)n2C` [Example FS, 1-(2,4-dichloro-3-((1,4-dimethyl-6-(trifluoromethyl)-1H-pyrrolo[2,3-b]pyridin-2-yl)methyl)benzoyl)piperidine-4-carboxylic acid] returned an IC50 of less than 100 nM.
The value for `Cc1cc(C(F)(F)F)nc2c1cc(C(=O)c1c(Cl)ccc(C(=O)N3CCC(CC(=O)O)CC3)c1Cl)n2C` [Example FU, 2-(1-(2,4-dichloro-3-(1,4-dimethyl-6-(trifluoromethyl)-1H-pyrrolo[2,3-b]pyridine-2-carbonyl)benzoyl)piperidin-4-yl)acetic acid] was less than 100 nM.
